## AlphaSeq binding of Ab-14 heavy chain variants to a spike HR2 peptide

Source: Engelhart et al. 2022 (doi:10.1038/s41597-022-01779-4), MIT Lincoln Laboratory and A-Alpha Bio; data file from the FLAb repository.

Antigen: PDVDLGDISGINAS, a 14-residue peptide of the SARS-CoV-2 spike HR2 region.

Each scFv is VH, the linker GGGGSGGGGSGGGGS, VL, as in the parent Ab-14, and differs from it in the CDRs of the heavy chain only.
VH: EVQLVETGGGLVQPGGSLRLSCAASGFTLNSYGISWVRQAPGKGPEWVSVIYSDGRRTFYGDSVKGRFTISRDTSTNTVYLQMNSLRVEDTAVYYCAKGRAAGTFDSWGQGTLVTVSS
VL: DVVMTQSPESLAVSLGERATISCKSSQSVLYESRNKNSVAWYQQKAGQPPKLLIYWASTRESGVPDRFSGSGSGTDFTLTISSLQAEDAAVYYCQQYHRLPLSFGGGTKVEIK

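The starting antibody came from a phage panning campaign against this peptide. AAYL49 was designed without a model: most single CDR substitutions and a random sample of double and triple ones. Affinity was read by AlphaSeq, a pooled yeast mating assay with surface-displayed partners. Pairs that bind mate more often; barcode pairs of the diploids are counted by sequencing. Scores were corrected for input abundance and mapped to Kd with protein pairs of known affinity run in the same pool. The assay was run in three technical replicates.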

Positions count from residue 1 of the parent VH; T28R puts R in place of T.
Values are log10 of the apparent Kd in nM; lower means stronger binding.
"nd" marks a missing value. The strain was present, yet no cells mated with the target were sequenced in that replicate, which points to weak or no binding.
In this assay the parent's reference entry averaged 0.65; its copy inside this library read 4.11 (one replicate of three).

changes	log10 Kd (nM) by replicate	signal with controls
T28R+R57M+A102R	nd nd nd	0/9
N30Y+R56Q+D106E	nd nd nd	1/9 (3.66)
Y32S+V50Q+S63V	nd nd 3.92	6/9 (3.94)
I51N+G55V+G99Y	nd nd nd	1/9 (3.47)
L29P+Y52T+Y60M	nd nd nd	0/9
V50M+G55I+G99A	nd nd nd	0/9
I34T+G55D+R100H	5.06 nd nd	1/9 (3.87)
V50W	nd nd nd	0/9
F27L+I51C+R57S	nd nd nd	2/9 (2.56)
L29I+G103T+F105C	nd nd nd	0/9
G61I+V64H	nd nd nd	0/9
N30G+Y32A+F105T	nd nd nd	0/9
L29D+G33I+D54Q	nd nd 3.96	0/9
F27N+S31K+F105H	2.51 2.12 1.97	3/9 (4.20)
Y60E+G103M+F105V	nd 4.78 nd	1/9 (4.24)
S53V+T104F+S107D	nd nd nd	0/9
T104L	0.65 0.74 0.74	0/9
K65G+G103L+S107I	3.37 2.71 2.96	4/9 (5.13)
G33M+Y60P+R100H	nd nd nd	1/9 (2.71)
L29T+T58Q+D62N	nd nd nd	1/9 (3.62)
I34S+R100G+T104G	nd nd nd	0/9
S31A+F59C	2.06 1.84 2.26	1/9 (5.19)
N30Y+S53H+G99C	4.03 3.07 3.78	0/9
I51G+F59M+K65E	nd nd nd	0/9
T58F+G61T+G99N	2.06 1.56 1.94	0/9
F27Y+N30K+F59W	nd 3.04 nd	2/9 (3.96)
G99R+A102K+G103T	0.45 0.69 0.32	0/9
F27P+V50Y	nd 4.53 nd	1/9 (3.66)
L29N+G99T+F105Q	nd nd 4.65	0/9
Y52G+R56E+S107P	nd nd nd	1/9 (4.30)
T28F+G33I+Y52S	5.81 nd nd	2/9 (4.29)
S31A+S53T+D54Q	nd nd nd	4/9 (4.00)
S35L+R100N+T104K	nd nd nd	1/9 (4.29)
L29W	nd nd nd	0/9
S53N+V64K+A101F	nd nd 5.06	0/9
I34Y+G55D+D62P	4.15 nd 4.05	0/9
G55Q+Y60F+T104R	5.13 4.43 nd	1/9 (3.05)
F27R+I51C+S53Y	nd nd nd	2/9 (2.78)
T58A+D62R+T104D	nd nd nd	0/9
G33C+I34Y+A102I	nd nd nd	1/9 (3.71)
S31H+Y52N+K65Y	nd 5.20 nd	2/9 (3.55)
G55W+T58F+K65G	nd nd nd	0/9
Y52S+D106G	nd nd nd	0/9
Y60V+A101T+S107D	0.87 0.95 0.98	0/9
T28P+S53I+Y60P	4.55 4.43 nd	2/9 (5.14)

Excerpt, the final 7 entries:

changes	log10 Kd (nM) by replicate	signal with controls
T58A+D62R+T104D	nd nd nd	0/9
G33C+I34Y+A102I	nd nd nd	1/9 (3.71)
S31H+Y52N+K65Y	nd 5.20 nd	2/9 (3.55)
G55W+T58F+K65G	nd nd nd	0/9
Y52S+D106G	nd nd nd	0/9
Y60V+A101T+S107D	0.87 0.95 0.98	0/9
T28P+S53I+Y60P	4.55 4.43 nd	2/9 (5.14)

Three control strains display no target. For library AAYL49, 15% of the pairings with them gave a signal, with a median of 4.06 and one signal in twenty below 2.83, so weak values seen in few replicates may be background. Also given: how often the same scFv was detected with the empty control strains, with their mean in brackets.